In the library only some 4.2% were active in any assay of this set; here they are far more common.
HDAC3 inh = human HDAC3 inhibition; O15379; recombinant HDAC3, fluorogenic peptide/trypsin coupled, fluorescence; inhibition, % at 8.3 µM; hit rate 0.15% among 320,000; in the data active = inhibition above about 26%, passing the limit was not always enough
MC4R barr agon = agonists of human melanocortin 4 receptor (MC4R) beta-arrestin. activation, % at 8.9 µM. U2OS MC4R beta-arrestin complementation, luminescence; percent of melanotan II response, DMSO zero. AID 540308. hit rate 0.98% among 360,000;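 active = activation above a per-plate cutoff, the mean activation of sample wells on that plate plus 3 SD, cut at about 8% in these data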
Yeast UUG start = modulators of yeast start codon fidelity, primary screen, whole organism, S. cerevisiae, single point, plate reader; S. cerevisiae UUG-firefly luciferase reporter, luminescence/redox ratio; activity score, % at 18.7 µM; actives 0.13% (n = 350,000);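 active means replicate mean at a twofold rise or more, about +100% in these data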;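 further: firefly luciferase made from a UUG start codon reports start codon fidelity; reporter light over untreated wells divided by growth signal over untreated wells; some hits fall short of that in this replicate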
MC4R antag cAMP = antagonists of human melanocortin 4 receptor (MC4R); P32245; MC4R-expressing cells, MTII-stimulated cAMP, LANCE TR-FRET; inhibition, % at 6.5 µM; hit rate 0.48% among 360,000; AID 540295;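 active = inhibition above its plate's cutoff, the mean of tested wells on that plate plus 3 SD, cut at about 29% in these data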;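 note: 0% = Melanotan II alone and 100% = Melanotan II plus saturating MCL0020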
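System: U2OS-MC4R stable cell line; Technique: Eu-cAMP/anti-cAMP TR-FRET, emission 671 nm; Repeats: single well per compound; Also added: Melanotan II; Dosing: one concentration, 6.5 µM nominal; Schedule: 30-min compound, 1-h challenge, 1-h detection, room temperature.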
NALP1 inh = blocks the NALP1 inflammasome reconstituted in yeast; inhibition, % at 10 µM; hit rate 0.61% among 280,000; S. cerevisiae NALP1/ASC/caspase-1 growth, X-gal OD620, 72 h; in the data active = inhibition mostly above about 24%, no sharp cut-off; inactive = mostly below about 32%
ALR inh = inhibitors of human sulfhydryl oxidase ALR; P55789; purified ALR, DTT oxidation, H2O2 HRP-luminol luminescence; inhibition, % (test concentration not listed); actives 3.8% (n = 290,000); AID 485317;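 active = mean and each replicate at 75% or more; inconclusive = only one of the two met; inactive = neither met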;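 also: stock transfer was 7.5 nL into about 7.5 µL; 0% = neutral wells and 100% = wells with inactivated enzyme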
Starred values were filed as active, the others as inactive; / = no result.

NALP1 inh,ALR inh,MC4R barr agon,Yeast UUG start,MC4R antag cAMP,HDAC3 inh,smiles
/,/,/,23.3,/,/,CCC(=O)N1[C@H](CO)[C@@H](c2ccc(C3=CCCC3)cc2)[C@H]1CNC(=O)CN(C)C
/,/,/,-10.4,/,/,CO[C@@H]1CN(C)C(=O)c2ccc(NS(C)(=O)=O)cc2OC[C@@H](C)NC[C@H]1C
56.9*,-2.9,-1.2,/,-3.7,1.7,N=c1c2c(ncn1Cc1ccco1)Oc1ccc3ccccc3c1C2c1ccccc1 (stereo unspecified)
27.0,2.9,-0.8,-15.7,11.3,4.5,COc1ccc(C2c3c(ncn(Cc4ccco4)c3=N)Oc3ccc4ccccc4c32)cc1 (stereo unspecified)
/,/,/,1.0,/,/,COc1cccc(S(=O)(=O)N[C@@H]2CC[C@@H](CCNC(=O)Nc3cc(F)ccc3F)O[C@@H]2CO)c1
/,/,/,-12.4,/,/,CC(=O)NC[C@H]1[C@@H](c2ccc(-c3cccnc3)cc2)[C@H](CO)N1C(=O)C1CCC1
52.4,98.9*,-1.6,-25.0,21.3,5.0,Cc1nc(N)sc1N=Nc1ccc(Br)cc1
1.2,-1.3,/,/,/,-2.4,Cc1[nH]nc(N)c1N=Nc1ccc(Br)cc1
37.6*,/,1.4,/,14.0,0.8,Cc1c(NCc2ccccc2O)c(=O)n(-c2ccccc2)n1C
-3.5,90.8*,-0.5,-11.0,5.7,0.7,Cc1c(NC(C)c2cc(Cl)ccc2O)c(=O)n(-c2ccccc2)n1C (stereo unspecified)
/,96.9*,-1.3,-6.8,8.3,-3.7,Cc1c(NC(C)C)c(=O)n(-c2ccccc2)n1C
0.8,54.4,-2.4,4.1,-0.1,-2.8,Cc1c(NC(C)c2ccccc2O)c(=O)n(-c2ccccc2)n1C (stereo unspecified)

NALP1 inh,ALR inh,MC4R barr agon,Yeast UUG start,MC4R antag cAMP,HDAC3 inh,smiles
2.2,98.9*,0.2,0.7,2.5,2.5,CC(Nc1ccccc1)c1cc(Cl)ccc1O (stereo unspecified)
/,/,/,4.6,/,/,CO[C@@H]1CN(C)C(=O)c2cc(NS(=O)(=O)c3ccccc3)ccc2OC[C@H](C)N(C(=O)NC(C)C)C[C@@H]1C
/,/,/,32.6,/,/,CC(C)CN1C(=O)[C@@]2(c3ccc([N+](=O)[O-])cc3)CC(=O)N(CC3C4CC5CC(C4)CC3C5)[C@@H]2c2ccc(CO)cc21 (stereo partly specified)
17.2,93.6*,0.4,/,-10.3,-5.5,CC(=O)Nc1ccc(NC(=O)COC(=O)c2c(C)nn(-c3ccccc3)c2C)cc1
/,/,/,8.6,/,/,Cc1noc(C)c1NC(=O)Nc1ccc2c(c1)CC(=O)N([C@H](C)CO)C[C@H](C)[C@H](CN(C)C(=O)Nc1ccc(F)cc1)O2
/,/,/,5.3,/,/,CNC[C@@H]1Oc2cc(C#CC3CCCC3)ccc2S(=O)(=O)N([C@@H](C)CO)C[C@H]1C
12.9,-5.0,10.0*,-12.4,20.5,1.1,OC(CN1CCN(C(c2ccccc2)c2ccccc2)CC1)c1ccccc1 (stereo unspecified)
-15.6,97.7*,-4.6,/,7.5,-2.1,CC(=O)C1=C(c2cccc([N+](=O)[O-])c2)N(C(C)=O)n2c(C)nnc2S1
/,/,/,0.5,/,/,CCC(=O)N(C)C[C@@H]1Oc2ncc(C3=CCCC3)cc2C(=O)N([C@@H](C)CO)C[C@H]1C
/,/,/,-13.0,/,/,CCC(=O)Nc1ccc2c(c1)C(=O)N(C)C[C@@H](OC)[C@H](C)CN(CC1CC1)[C@@H](C)CO2
/,56.9,-0.4,-17.4,0.1,2.4,CSc1ccccc1NC(=O)CSCc1nc2sc(C)c(C)c2c(=O)[nH]1
7.3,98.2*,1.1,7.3,-13.0,4.4,Cc1sc2nc(CSCC(=O)Nc3ccccc3C#N)[nH]c(=O)c2c1C

Copied from the list:
Yeast UUG start with CCC(=O)N(C)C[C@@H]1Oc2ncc(C3=CCCC3)cc2C(=O)N([C@@H](C)CO)C[C@H]1C → 0.5
MC4R antag cAMP with Cc1sc2nc(CSCC(=O)Nc3ccccc3C#N)[nH]c(=O)c2c1C → -13.0
ALR inh with OC(CN1CCN(C(c2ccccc2)c2ccccc2)CC1)c1ccccc1 (stereo unspecified) → -5.0
Yeast UUG start with CO[C@@H]1CN(C)C(=O)c2cc(NS(=O)(=O)c3ccccc3)ccc2OC[C@H](C)N(C(=O)NC(C)C)C[C@@H]1C → 4.6
Yeast UUG start with CNC[C@@H]1Oc2cc(C#CC3CCCC3)ccc2S(=O)(=O)N([C@@H](C)CO)C[C@H]1C → 5.3

(continued)
NALP1 inh,ALR inh,MC4R barr agon,Yeast UUG start,MC4R antag cAMP,HDAC3 inh,smiles
/,97.2*,-4.7,/,2.1,-0.4,Cc1ccc(F)cc1NC(=O)CSCc1nc2sc(C)c(C)c2c(=O)[nH]1
/,/,/,-4.3,/,/,O=C(NCC[C@H]1CC[C@H](NC(=O)C2CCC2)[C@H](CO)O1)c1cnccn1
/,/,/,6.9,/,/,O=C(C[C@H]1CC[C@@H]2[C@H](COC[C@H](O)CN2S(=O)(=O)c2cccc(Cl)c2)O1)Nc1ccccc1
/,/,/,14.1,/,/,C[C@H](O)C#Cc1ccc2c(c1)O[C@@H](CN(C)C(=O)C1CCC1)[C@H](C)CN([C@@H](C)CO)S2(=O)=O
25.5,-3.4,-0.5,-21.3,1.5,34.5*,Brc1ccc(CNCCCSc2ncccn2)cc1
32.2*,-13.7,1.1,-12.7,2.4,-6.0,COC(=O)c1ccccc1NC(=O)CSc1nc(N)cc(N)n1
-2.3,-7.8,-0.3,-12.3,-3.5,-3.4,Nc1cc(N)nc(SCC(=O)Nc2ccccc2)n1
7.7,93.9*,-0.4,-13.5,11.1,-6.2,COc1ccc(Cl)cc1C(=O)CSc1nc(N)cc(N)n1
12.5,98.7*,-1.9,/,8.1,-3.2,Nc1cc(N)nc(SCC(=O)c2ccccc2)n1
-55.7,57.3,0.5,-4.8,-1.3,-8.2,CCOC(=O)c1ccccc1NC(=O)CSc1nc(N)cc(N)n1
6.5,32.1,1.3,-24.5,14.8,1.0,CCCCn1nnnc1SCC(=O)c1cc(Cl)ccc1OC
/,/,/,-10.3,/,/,CC(C)CC#Cc1cnc2c(c1)C(=O)N([C@H](C)CO)C[C@@H](C)[C@@H](CN(C)C(=O)Cc1cccnc1)O2
1.5,73.1,-1.4,-14.9,3.3,-4.1,O=C(CSC1=NCCS1)N1CCN(c2ccc(Cl)cc2)CC1

Whole records as entered above. Values in the order: NALP1 inh | ALR inh | MC4R barr agon | Yeast UUG start | MC4R antag cAMP | HDAC3 inh
CCCCn1nnnc1SCC(=O)c1cc(Cl)ccc1OC is listed with 6.5 | 32.1 | 1.3 | -24.5 | 14.8 | 1.0
CC(C)CC#Cc1cnc2c(c1)C(=O)N([C@H](C)CO)C[C@@H](C)[C@@H](CN(C)C(=O)Cc1cccnc1)O2 is listed with / | / | / | -10.3 | / | /
